In this experiment the target is human FLAP (Homo sapiens (Human), UniProt P20292). The experiment is described as follows: FLAP binding assay (HTRF). The conditions noted are these: wild type FLAP-containing membranes, HTRF format.

Sequences of proteins named here, by UniProt entry; tags and fusion partners are left off. A change or cut given only in a name is not applied to a line headed by its entry.
UniProt P20292: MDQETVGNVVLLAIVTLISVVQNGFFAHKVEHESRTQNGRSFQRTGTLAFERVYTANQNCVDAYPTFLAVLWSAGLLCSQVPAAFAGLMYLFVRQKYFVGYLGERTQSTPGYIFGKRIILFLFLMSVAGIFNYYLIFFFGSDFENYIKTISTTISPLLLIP

Broadly, the Ki is the dissociation constant of the complex between target and ligand, obtained from inhibition or displacement. Read a low Ki as tighter binding.

For `Cc1ccc(COc2cc(F)c3nc([C@@H]4[C@H](C(=O)O)C4(C)C)n(Cc4ccc(Br)cc4)c3c2)nc1` (racemic) [Example 63, racemic cis-3-{1-(4-Bromobenzyl)-4-fluoro-6-[(5-methylpyridin-2-yl)methoxy]-1H-benzimidazol-2-yl}-2,2-dimethylcyclopropanecarboxylic acid], the Ki came to 23 nM. With `Cn1ccc(COc2ccc3nc([C@@H]4CCCC[C@@H]4C(=O)O)n(Cc4ccc(OC(F)(F)F)cc4)c3c2)n1` (relative stereo) [Example 45, (1R*,2S*)-2-{6-[(1-Methyl-1H-pyrazol-3-yl)methoxy]-1-[4-(trifluoromethoxy)benzyl]-1H-benzimidazol-2-yl}cyclohexanecarboxylic acid] the figure was approximately 2500 nM; with `Cc1ccc(COc2ccc3nc([C@H]4[C@@H](C(=O)O)C4(C)C)n(Cc4ccc(Br)cc4)c3c2)nc1` (relative stereo) [Example 113, (1R*,3S*)-3-{1-(4-Bromobenzyl)-6-[(5-methylpyridin-2-yl)methoxy]-1H-benzimidazol-2-yl}-2,2-dimethylcyclopropanecarboxylic acid], approximately 1790 nM.

(Values after patent US9089569B2, “1,2,6-substituted benzimidazoles as flap modulators” (JANSSEN PHARMACEUTICA NV, priority 2013, dated 2015).)
